## Ab-14 heavy chain CDR variants: yeast mating affinities

From the AlphaSeq antibody data of Engelhart et al. 2022 (doi:10.1038/s41597-022-01779-4), copy in the FLAb collection.

The target is the same throughout: PDVDLGDISGINAS, from the HR2 region of SARS-CoV-2 spike.

Ab-14 is the parent antibody, in scFv form: VH, then the linker GGGGSGGGGSGGGGS, then VL. The light chain is unchanged in all variants.
VH: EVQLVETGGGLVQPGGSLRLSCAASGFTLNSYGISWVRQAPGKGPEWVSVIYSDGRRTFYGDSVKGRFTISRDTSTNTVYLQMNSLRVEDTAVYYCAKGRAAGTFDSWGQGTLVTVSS
VL: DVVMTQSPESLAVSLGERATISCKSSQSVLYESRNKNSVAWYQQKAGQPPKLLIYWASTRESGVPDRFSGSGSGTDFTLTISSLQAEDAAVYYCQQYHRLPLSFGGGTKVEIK

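The parent was found by panning a naive human phage display library on the peptide. The library (AAYL49) carries one to three amino acid substitutions per variant, with no insertions or deletions. The scFvs were displayed on barcoded MATa yeast, the peptide on MATalpha yeast. The frequency of each diploid, read from paired DNA barcodes, reflects how well the two displayed proteins bind. Each replicate has its own calibration line, from reference interactions of the BCL2 family. The assay was run in three technical replicates.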

Each variant is given by its three heavy chain CDRs, as the data file delimits them; those of the parent are GFTLNSYGIS, VIYSDGRRTFYGDSVK, GRAAGTFDS.
Numbers give log10(Kd / nM), so 0 is 1 nM and 3 is 1 µM. Smaller is tighter.
"ND" means that the variant was in the library but no mating with the target was seen in that replicate; the authors take this as a sign of poor binding, and no number exists.

CDR-H1	CDR-H2	CDR-H3	log10 Kd (nM) by replicate	empty controls
GFTLVSDDIS	VIYSDGRRTFYGDSVK	GRAAGTFDS	ND / ND / ND	3 of 9 (3.75)
GFTLNSYGAS	WIYSDGRRTFYGDSVK	GRVAGTFDS	ND / ND / ND	1 of 9 (2.46)
GFTLNSYGIS	VIYCDGDRTFYGDSVK	GRAAGTFLS	ND / ND / ND	0 of 9
GYTLNSYGIS	VGYSDGRRTFYGDSVK	GRVAGTFDS	1.33 / 1.39 / 2.56	1 of 9 (3.84)
GFTLNSYGIS	VIYSDGRRTFYGDSVK	GRAAYVFDS	ND / ND / ND	0 of 9
GETLNSYGIS	VIYSFGRRTFYGDSVK	GRCAGTFDS	4.28 / 4.23 / ND	2 of 9 (3.55)
GFTLNSYGIS	LIYSDGRRTFYGDSVK	GRAAGPFSS	ND / ND / ND	0 of 9
GFTLNSYGIS	VIYDDGYRTFYGKSVK	GRAAGTFDS	ND / ND / ND	1 of 9 (3.09)
GFSLNVYGIS	VIYSDGRRTFYGDSVK	GRWAGTFDS	0.57 / 0.76 / 0.70	4 of 9 (4.99)
GFTLVSYGIS	VIYSDCRRTFLGDSVK	GRAAGTFDS	4.54 / 3.55 / ND	5 of 9 (4.48)
GTTHNSYGIS	VIYSDGRRTFYGDSVK	GRAAGTFDS	ND / ND / ND	0 of 9
GFTLNSYAIS	VIYSDGYRTFYKDSVK	GRAAGTFDS	ND / ND / 3.93	2 of 9 (3.52)
GDTLNSYGIS	VIYSDGRRTSYGDSVK	GRAAGTFDS	0.41 / 0.51 / 0.14	0 of 9
GFTLNNYGIS	VIYVDGRRTFYGDSVK	GRAMGTFDS	ND / ND / ND	0 of 9
GFTLFSYGIS	VIYSDGRRTFPGDSVK	GRAAGTFDS	ND / ND / ND	0 of 9
GFTLNSYGIS	AIYSDGRRTFYGDSVK	MRAAGTEDS	ND / 4.48 / ND	0 of 9
GITLNSYGIS	VIYSDGRRTFYGDSHK	GRAAGTIDS	4.03 / 4.38 / ND	4 of 9 (3.98)
GFRLNSYGIS	VFYSDGRRTFYGDSVK	GRWAGTFDS	ND / ND / ND	0 of 9
GFTLNSPGIS	VIYSDGRRTFYGDSVK	GRAAGTFDT	1.65 / 1.46 / 1.52	3 of 9 (3.27)
GFTLNSYGIS	VIYSDKRRTFYGDSVK	SRAAGCFDS	ND / ND / ND	1 of 9 (4.14)
GFQLNSYGPS	VIYLDGRRTFYGDSVK	GRAAGTFDS	ND / ND / 4.04	2 of 9 (4.16)
GFTLNMYGIS	VIYSDGRRTFYIDSVI	GRAAGTFDS	2.16 / 1.80 / 1.91	1 of 9 (3.11)
GFTLNPYGIS	VIVSDGRRTFYGDSVK	PRAAGTFDS	5.06 / ND / ND	1 of 9 (3.26)
GGTLNSYSIS	VIYSDGRPTFYGDSVK	GRAAGTFDS	4.26 / ND / ND	2 of 9 (3.73)
GAELNSYGIS	VIYSDGRRTFYGDSVK	GRAAGCFDS	ND / ND / ND	0 of 9
GFTLNSFGIS	VIYSDGRNTFYGDSVK	GRAAGTFLS	4.61 / 5.56 / 4.02	4 of 9 (4.26)
GFTLNSYGIS	VIYSDGRRTRYGDAVK	GRAAGTFDP	2.52 / ND / ND	0 of 9
GFTLNSYGIS	VIYSDGRRTDYGDKVK	GRPAGTFDS	4.79 / ND / 5.67	4 of 9 (4.08)
GFTLNSYAIS	VIYSDGRRTFYCDSVK	GRAHGTFDS	5.61 / ND / ND	3 of 9 (4.00)
GCTLNSYAIS	VIYSDGRRTFYGDSVK	QRAAGTFDS	ND / ND / ND	2 of 9 (4.23)
GFTLNSYGIS	VIYSDGRRNFYGDSHK	GRAAGTFDS	ND / ND / ND	2 of 9 (3.70)
GFTLNSYGIS	VNYSQGRRTFYGDWVK	GRAAGTFDS	ND / ND / ND	0 of 9
GFTLNSEGIS	VIYSDGRRTFYGWSVK	GRAAGTKDS	3.49 / 4.42 / ND	4 of 9 (4.64)
GSTLNSYGIS	VIMSDGRRTQYGDSVK	GRAAGTFDS	ND / ND / ND	3 of 9 (4.52)
RFTLNRYGDS	VIYSDGRRTFYGDSVK	GRAAGTFDS	ND / ND / ND	0 of 9
GFTLNSYGIS	VIYSDGRRTFYDDSVK	GQLAGTFDS	-0.18 / 0.02 / -0.06	1 of 9 (2.38)
GFTLLSYGIS	VIYSDGRRTFYGDSVK	GRAAGTFDS	1.22 / 1.34 / 1.70	1 of 9 (3.49)
GFTLNSYGKS	DIYSDGHRTFYGDSVK	GRAAGTFDS	ND / ND / ND	0 of 9
RFTYNSYGIS	VIYSDGRRTFYGDSVK	GRAAHTFDS	4.81 / ND / ND	0 of 9
GFTLNSYGIS	VIYEDGRRWFYGDSVK	GCAAGTFDS	ND / ND / ND	0 of 9
GFTLNPYGIS	VIYSDGRRTFYGDSVK	GRAAYTTDS	3.87 / 4.66 / ND	0 of 9
GFTLPSYGIS	VIYSDRRRTAYGDSVK	GRAAGTFDS	ND / ND / ND	2 of 9 (3.99)
GFTLNSYGIS	VIYSDLRRTFVGDSVK	GRAAGTEDS	ND / ND / ND	0 of 9
GFTLNSYGIK	VIYSDGRRTFYGDSVK	GIAAGTFDS	ND / ND / ND	0 of 9
GFTLNSYGIS	VLYSDGRRTHYGDSVK	GRAIGTFDS	ND / ND / ND	0 of 9
GFTLNSYGIS	VIYSDGRRRCYGESVK	GRAAGTFDS	ND / ND / 3.59	2 of 9 (4.06)

Nonspecific signal, from three strains lacking the peptide, appeared in 15% of pairings of library AAYL49, centred on 4.06 (5% of these signals below 2.83); values are not corrected for it. For each scFv, signals with the empty controls are counted beside the result, with their mean in brackets.